Measured values published in patent publication US5264372A (Amylin Pharmaceuticals, Inc., priority 1991, dated 1993).
pIC50: −log10 of the molar value.

The chains behind the UniProt entries cited, without tags or fusion partners. Residues count along the entry.
UniProt Q63118, 24-464: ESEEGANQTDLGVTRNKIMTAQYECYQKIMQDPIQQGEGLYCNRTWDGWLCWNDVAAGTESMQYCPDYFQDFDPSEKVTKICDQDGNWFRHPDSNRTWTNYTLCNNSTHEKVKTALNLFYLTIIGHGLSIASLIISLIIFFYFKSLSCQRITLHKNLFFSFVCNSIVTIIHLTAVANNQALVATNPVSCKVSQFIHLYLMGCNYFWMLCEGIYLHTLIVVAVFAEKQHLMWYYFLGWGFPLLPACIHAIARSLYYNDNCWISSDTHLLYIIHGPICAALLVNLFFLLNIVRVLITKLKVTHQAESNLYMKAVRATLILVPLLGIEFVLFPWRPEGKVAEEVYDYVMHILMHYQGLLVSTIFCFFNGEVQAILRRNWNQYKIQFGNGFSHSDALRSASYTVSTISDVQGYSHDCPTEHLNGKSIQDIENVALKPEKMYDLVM
UniProt Q9JJ74, 27-148: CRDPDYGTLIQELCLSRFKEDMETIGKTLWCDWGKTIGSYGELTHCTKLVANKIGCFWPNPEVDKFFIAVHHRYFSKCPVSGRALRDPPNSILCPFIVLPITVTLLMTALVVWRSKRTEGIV

What was measured:
[1] = molecular target: T1, ^125 I-h CGRP binding site (CGRP receptor) in rat liver membranes (Rattus norvegicus, UniProt Q63118+Q9JJ74); assay: 125I-h CGRP binding to rat liver membranes (saturation and competition); details: competition against ^125 I-h CGRP
T1 construct: from tissue; host or cells: rat liver membranes

[2] = molecular target: ^125 I-h CGRP binding sites in nucleus accumbens and surrounding regions; assay: Competition for 125I-h CGRP binding to nucleus accumbens area (basal forebrain) membranes; parameters: species or system rat; details: ^125 I-h CGRP tracer, r amylin 2 site fit
[3] = molecular target: ^125 I-CGRP binding sites in membranes from rat cerebellum (Rattus norvegicus, UniProt Q63118+Q9JJ74)

CC(C)C[C@H](NC(=O)CNC(=O)[C@H](C)NC(=O)[C@H](CC(C)C)NC(=O)[C@H](CCCNC(=N)N)NC(=O)[C@H](Cc1c[nH]cn1)NC(=O)[C@@H](NC(=O)[C@@H](NC(=O)[C@@H]1CSSC[C@H](NC(=O)[C@H](C)N)C(=O)N[C@@H](CC(=O)O)C(=O)N[C@@H]([C@@H](C)O)C(=O)N[C@@H](C)C(=O)N[C@@H]([C@@H](C)O)C(=O)N1)C(C)C)[C@@H](C)O)C(=O)N[C@@H](CC(C)C)C(=O)N[C@@H](CO)C(=O)N[C@@H](CCCNC(=N)N)C(=O)N[C@@H](CO)C(=O)NCC(=O)NCC(=O)N[C@H](C(=O)N[C@H](C(=O)N[C@@H](CCCCN)C(=O)N[C@@H](CC(N)=O)C(=O)N[C@@H](CC(N)=O)C(=O)N[C@@H](Cc1ccccc1)C(=O)N[C@H](C(=O)N1CCC[C@H]1C(=O)N[C@H](C(=O)N[C@@H](CC(N)=O)C(=O)N[C@H](C(=O)NCC(=O)N[C@@H](CO)C(=O)N[C@@H](CCCCN)C(=O)N[C@@H](C)C(=O)N[C@@H](Cc1ccccc1)C(N)=O)C(C)C)[C@@H](C)O)C(C)C)C(C)C)C(C)C [h CGRP, human α-CGRP]
Hill Slope [1]: -1.14 | pIC50 [2]: 10.52 | Hill Slope [3]: -1.21
